# Screening results as filed in PubChem.
# ClpP mod = qHTS Assay for Activators of ClpP. ATP-dependent Clp protease proteolytic subunit (Bacillus subtilis (strain 168)), P80244. purified B. subtilis ClpP, FRET peptide cleavage, 20 min. Potency, µM (doses to about 57.5 µM), inactives show at the highest dose activity change, negative = active. 340,000 tested, 1.9% active. AID 651965, 2013; active = well fitted falling curve with a large enough effect; inconclusive = small, poorly fitted or top-dose-only effect; inactive = no such curve, though single readings can be large or run the other way; also: potency is read from the fitted curve at half-maximal effect; the source files actives as falling curves though it sought activators and does not explain the sign; nearly all actives have a fitted effect of over 65% in size
#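 FRET quenching reversal measured ClpP activation: 10 microg/mL B. subtilis ClpP at pH 8 with the FRET-FV decapeptide, read at 430 nm after 320 nm excitation. The 20-min minus 0-min signal was scaled between DMSO/no-enzyme wells and ADEP (5.8 microM final).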
# Nrf2 activator = Nrf2 pathway activation. 410,000 tested, 0.31% active. Potency, µM (highest dose often 46.1 µM), without a hit: at the highest dose activation, hits mostly activators. AID 624171. AREc32 ARE-luciferase reporter (MCF7-derived line), luminescence, 24 h; also: potency is read from the fitted curve at half-maximal effect; % of control where 0% means no effect; nearly all actives have a fitted effect of over 65% in size
#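 Nrf2 activation is followed as ARE-luciferase induction in the AREc32 line after one day of compound treatment; luminescence is read with Steady-Glo.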
# TCR activator = T cell receptor activation; primary human leukocytes, anti-CD3, IL-2 HTRF, 48 h; Potency, µM (titrated, usually from 9.22 µM), for the others: top-dose activation of IL-2 secretion, usual class: activators; 330,000 tested, under 10 active; also: % of control where 0% means no effect
#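 Using a-CD3 beads without co-stimulation, primary human leukocytes were exposed to compounds for 48 hr. An HTRF IL-2 kit measured the cytokine, with europium-to-d2 energy transfer producing emission at 665nm upon 320nm excitation.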
# A549 viability = kills or reduces viability of A549 cells in Nrf2 counter-screen; AID 504648; Potency, µM (titrated, usually from 46 µM), inactives show at the highest dose activity change, negative = cytotoxicity, actives largely listed as inhibitors; 390,000 tested, 0.16% active; A549 ARE-Fluc cells, CellTiter-Fluor viability, 18-24 h; also: potency is read from the fitted curve at half-maximal effect; % is scaled to controls: 0 for no effect and ±100 for the full control effect
#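 A549 ARE-Fluc cells in 5% FBS OPTI-MEM, 5000 cells/well, rested 2 h then exposed to compounds in concentration-response for 18-24 h at 37 °C. Viability by CellTiter-Fluor fluorescence (Ex 405/Em 525) after 30 min; luciferase luminescence (BugLite, 15 min, RT) read afterwards.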
# miR-21 reporter = miR-21 reporter, rising signal; 340,000 tested, under 10 active; Potency, µM (highest dose often 38.3 µM), for the others: top-dose reporter change, positive = more light; HeLa miR-21 FLuc reporter, luciferase, 48 h; active = well fitted rising curve with a large enough effect; inconclusive = small, poorly fitted or top-dose-only effect; inactive = no such curve, though single readings can be large or run the other way;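 further: % of control where 0% means no effect; miR-21 action dims this reporter so a rising signal means less miR-21 action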
#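 HeLa cells endogenously expressing miR-21, stably carrying CMV-driven firefly luciferase with a downstream miR-21 binding site, 2000 cells/well. Titrations up to approximately 40 uM, 48 hours; luciferase luminescence read.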
# Nrf2 block = inhibitors of Nrf2 signaling; Potency, µM (highest dose often 46 µM), without a hit: top-dose activity change, negative = inhibition, most hits filed as inhibitors; 360,000 tested, 2.1% active; A549 ARE-Fluc reporter, luciferase luminescence, 18-24 h; also: potency is read from the fitted curve at half-maximal effect; % is scaled to controls: 0 for no effect and ±100 for the full control effect; nearly all actives have a fitted effect of over 60% in size
#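 Quantitative HTS in A549 cells stably bearing an antioxidant response element-firefly luciferase construct. Inhibition of Nrf2-driven transcription was scored by luminescence after 18-24 h of compound exposure at 37 °C.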
# * marks the source's active call; other numbers are inactive results; ? = inconclusive; . = not tested or not shown; [ ] = dose if it differs, or a comment. Only some compounds are listed: those with a hit (about 3.7% of all), similar ones and a draw of the others. Unless noted, calls follow the shape of the dose curve; as a rule, active = well fitted curve in the direction sought with a large enough effect; inconclusive = small, poorly fitted or top-dose-only effect, or another doubt; inactive = no such curve, though single readings can be large; an effect the other way counts as inactive or inconclusive.
canonical_smiles | ClpP mod | Nrf2 activator | TCR activator | A549 viability | miR-21 reporter | Nrf2 block
O=C(Nc1ccc(S(=O)(=O)Nc2ccccc2)cc1)C1COc2ccccc2O1 (configuration not stated) | 0% | 3% | -3%[46.1 µM] | -27% | ? | 18µM*
Cc1ccc(NS(=O)(=O)c2ccc(C(=O)NCCN3CCOCC3)cc2)cc1 | -2% | 0% | 0% | -2% | . | 9.2µM*
O=C1NC(=O)c2cc(NC(=O)C3CCCO3)ccc21 (configuration not stated) | 28µM* | 0% | 2% | -8% | 1% | 9%
Cc1cc(C)nc(NS(=O)(=O)c2ccc(NC(=O)C3COc4ccccc4O3)cc2)n1 (configuration not stated) | . | -1% | . | 1% | -6% | ?
Cc1ccc(NS(=O)(=O)c2ccc(NC(=O)C3CCCO3)cc2)cc1 (configuration not stated) | 32µM* | -1% | 4% | -4% | 8% | ?
O=C(NCC1CCCO1)c1cccc(NS(=O)(=O)c2ccccc2)c1 (configuration not stated) | 1% | -1% | -2% | -3% | . | 0%
Cc1ccc(NS(=O)(=O)c2cccc(C(=O)NCC3CCCO3)c2)cc1 (configuration not stated) | -5% | 5% | 0% | -1% | . | 21µM*
O=C(NCc1cccs1)c1ccc2sc(C3=C[C@@H](O)[C@@H](O)[C@@H](CO)O3)nc2c1 | -7% | 0%[9.22 µM] | . | . | . | .
Cc1cc(-c2nnc(SCC(=O)Nc3ccc(C(F)(F)F)cc3)n2C)no1 | -2% | 1% | 2% | -14% | 10% | 23µM*
O=C(CC(NS(=O)(=O)c1ccc(Cl)cc1)c1ccco1)NCc1ccco1 (configuration not stated) | 25µM* | 8% | 0% | 0% | -1% | ?
O=S1(=O)N=C(Oc2ccc(Cl)cc2)c2ccccc21 | . | . | . | -4%[65.3 µM] | . | -1%[65.3 µM]
O=C(NC(Nc1ncc(S(=O)(=O)c2ccc([N+](=O)[O-])cc2)s1)(C(F)(F)F)C(F)(F)F)c1ccc(Cl)cc1 | 0% | ? | 3% | ? | ? | 5.8µM*
O=C(O)c1ccc(N2C(=O)c3[nH]nc(-c4ccccc4)c3C2c2cccc(F)c2)cc1 (configuration not stated) | 1% | -1% | . | 3% | -3% | -1%
O=C(O)c1c2c(nc3ccccc13)/C(=C/c1cccc([N+](=O)[O-])c1)CCC2 | . | 2% | 4% | -10% | -43% | 1%
CC1CCC(NC(=O)COc2ccc(C(=O)c3ccccc3)cc2)CC1 (configuration not stated) | -3% | 0% | 2%[46.1 µM] | 4% | -3% | 18µM*
COc1ccc2oc(C(=O)OCC(=O)NC3CCCCC3)c(C)c2c1 | 16µM* | 2% | 3% | 3% | . | 22%
COc1ccc2oc(C(=O)OCC(=O)N(CCC#N)c3ccccc3)c(C)c2c1 | 32µM* | -1% | -1% | 2% | -3% | -10%
CCOc1ccc2oc(C(=O)OCC(=O)NC(=O)NC3CCCC3)c(C)c2c1 | 22µM* | 1% | -8% | . | -21% | 27%
COc1ccc2oc(C(=O)OCC(=O)N(Cc3ccccc3)C(C)(C)C)c(C)c2c1 | 4% | 0% | -8% | 6% | 0% | ?
COc1ccc2nc(-c3ccccc3)cc(C(=O)OCC(=O)NC3CC3)c2c1 | 10µM* | 3% | 5% | 3% | . | 24%
CCN(C(=O)COC(=O)c1oc2ccc(OC)cc2c1C)C1CCS(=O)(=O)C1 (configuration not stated) | 8.9µM* | 0% | -8% | 3% | . | 10%
Cc1ccc(Cc2ccccc2C(=O)O)cc1 | 15% | 0% | 6% | -1% | . | -4%
Cc1ccc(NS(=O)(=O)c2cc3c4c(cccc4c2)C(=O)NC3=O)cc1C | . | 2% | -1% | -9% | 16% | 15µM*
Cc1ccc(NS(=O)(=O)c2ccc(Cl)cc2)cc1C | . | . | . | 14% | . | -20%
O=C(CC1C[C@H](C(=O)N2CCOCC2)[C@@]2(CCC3CCCC3)c3[nH]c4ccccc4c3CCN2C1=O)NCC12CC3CC(CC(C3)C1)C2 (some centres not stated) | 2% | 0% | 3% | ? | . | 23µM*
CC[C@]12c3[nH]c4ccc(OC)cc4c3CCN1C(=O)C(CC(=O)NCC13CC4CC(CC(C4)C1)C3)C[C@@H]2C(=O)N1CCN(C(=O)C2CC2)CC1 (some centres not stated) | 2% | 7% | -6%[46.1 µM] | ? | . | ?
CC[C@]12c3[nH]c4ccc(Cl)cc4c3CCN1C(=O)[C@@H](CC(=O)NCC13CC4CC(CC(C4)C1)C3)C[C@@H]2C(=O)N1CCN(C(=O)C2CC2)CC1 | -1% | -1% | 1%[46.1 µM] | -29% | . | 23µM*
COc1ccc(CNC(=O)C[C@H]2C[C@H](C(=O)N3CCOCC3)[C@@]3(CCC4CCCC4)c4[nH]c5cc(-c6ccco6)ccc5c4CCN3C2=O)cc1OC | 4% | 2% | -1%[46.1 µM] | -29% | . | 23µM*
Cc1cnc(C(=O)OC(C)C(=O)NCc2ccccc2)cn1 (configuration not stated) | -1% | 0% | -2% | 5% | . | 3%
CC1(C)C(=O)OC(c2c(F)c(F)c(F)c(F)c2F)C2(CCCCC2)C1=O (configuration not stated) | 28µM* | 0% | -3% | 16% | -3% | .

# Full records, looked up by structure. Order of values: ClpP mod	Nrf2 activator	TCR activator	A549 viability	miR-21 reporter	Nrf2 block
# Listed for CC[C@]12c3[nH]c4ccc(Cl)cc4c3CCN1C(=O)[C@@H](CC(=O)NCC13CC4CC(CC(C4)C1)C3)C[C@@H]2C(=O)N1CCN(C(=O)C2CC2)CC1 = -1%	-1%	1%[46.1 µM]	-29%	.	23µM*
# Listed for Cc1ccc(NS(=O)(=O)c2ccc(Cl)cc2)cc1C = .	.	.	14%	.	-20%
# Listed for COc1ccc(CNC(=O)C[C@H]2C[C@H](C(=O)N3CCOCC3)[C@@]3(CCC4CCCC4)c4[nH]c5cc(-c6ccco6)ccc5c4CCN3C2=O)cc1OC = 4%	2%	-1%[46.1 µM]	-29%	.	23µM*

# Reprinted at random: 2 entries already listed
canonical_smiles | ClpP mod | Nrf2 activator | TCR activator | A549 viability | miR-21 reporter | Nrf2 block
Cc1ccc(Cc2ccccc2C(=O)O)cc1 | 15% | 0% | 6% | -1% | . | -4%
O=C(CC1C[C@H](C(=O)N2CCOCC2)[C@@]2(CCC3CCCC3)c3[nH]c4ccccc4c3CCN2C1=O)NCC12CC3CC(CC(C3)C1)C2 (some centres not stated) | 2% | 0% | 3% | ? | . | 23µM*

# The results go on.
canonical_smiles | ClpP mod | Nrf2 activator | TCR activator | A549 viability | miR-21 reporter | Nrf2 block
CC1(C)C(=O)OC(c2cccn2-c2ccc([N+](=O)[O-])cc2)C2(CCCCC2)C1=O (configuration not stated) | 1% | 0% | -2%[46.1 µM] | 8% | -11% | 5%
Cn1nnnc1Sc1ncnc2scc(-c3ccc(N)cc3)c12 | . | . | . | 1% | . | 11%
Cc1ccc(OC(=O)c2ccccc2)cc1C | 28µM* | 0% | 6% | 2% | . | 1%
O=C(NC1CCCCCC1)c1ccc([N+](=O)[O-])s1 | . | 3% | -104% | -4% | . | 2.1µM*
O=C(NC1CCCCC1)c1cc(Cl)ccc1[N+](=O)[O-] | 28µM* | -1% | 6%[46.1 µM] | -2% | 16% | 17%
O=C(NC1CCCC1)c1ccc(Cl)s1 | -2% | 0% | -2% | 0% | -10% | 2%
COc1ccccc1N1CCN(C(=O)CSc2nnc(C)n2C2CC2)CC1 | -3% | 0% | -1% | 2% | . | -9%
